Source: US8163909B2, “Substituted hydroxyethyl amine compounds as beta-secretase modulators and methods of use” (Amgen Inc., priority 2007, dated 2012)
pIC50: −log10 of the molar value. Where two headings read alike, the source gives them in different places.

Amino acid sequences for entries named in this document (tags omitted). Residues count along the entry.
UniProt P10635, whole entry: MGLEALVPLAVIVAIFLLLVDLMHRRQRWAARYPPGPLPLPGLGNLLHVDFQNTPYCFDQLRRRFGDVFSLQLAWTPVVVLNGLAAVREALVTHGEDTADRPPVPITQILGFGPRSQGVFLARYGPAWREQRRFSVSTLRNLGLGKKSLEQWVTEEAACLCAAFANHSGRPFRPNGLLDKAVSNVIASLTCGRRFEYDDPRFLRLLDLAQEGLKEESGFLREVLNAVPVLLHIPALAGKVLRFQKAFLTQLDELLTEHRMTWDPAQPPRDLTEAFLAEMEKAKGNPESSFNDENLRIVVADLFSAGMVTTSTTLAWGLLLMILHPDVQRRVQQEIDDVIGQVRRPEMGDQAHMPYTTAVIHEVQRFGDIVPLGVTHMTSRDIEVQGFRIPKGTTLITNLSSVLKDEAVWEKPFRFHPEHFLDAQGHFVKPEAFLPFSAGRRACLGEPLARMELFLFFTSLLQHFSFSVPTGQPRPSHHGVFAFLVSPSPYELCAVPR
UniProt P56817, 46-501 limits assumed: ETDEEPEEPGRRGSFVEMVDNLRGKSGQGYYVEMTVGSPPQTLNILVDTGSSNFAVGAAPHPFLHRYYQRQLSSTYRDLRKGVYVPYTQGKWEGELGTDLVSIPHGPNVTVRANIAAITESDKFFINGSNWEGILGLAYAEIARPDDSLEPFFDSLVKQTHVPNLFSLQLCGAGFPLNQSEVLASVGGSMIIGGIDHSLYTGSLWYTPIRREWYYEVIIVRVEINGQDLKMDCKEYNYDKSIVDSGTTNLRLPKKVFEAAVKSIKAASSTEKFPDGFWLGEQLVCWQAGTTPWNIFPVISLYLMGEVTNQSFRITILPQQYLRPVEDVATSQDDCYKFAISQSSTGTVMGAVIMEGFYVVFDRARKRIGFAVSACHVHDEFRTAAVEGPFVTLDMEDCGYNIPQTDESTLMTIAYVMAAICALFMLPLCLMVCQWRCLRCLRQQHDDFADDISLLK
UniProt P08684, 2-503 limits assumed: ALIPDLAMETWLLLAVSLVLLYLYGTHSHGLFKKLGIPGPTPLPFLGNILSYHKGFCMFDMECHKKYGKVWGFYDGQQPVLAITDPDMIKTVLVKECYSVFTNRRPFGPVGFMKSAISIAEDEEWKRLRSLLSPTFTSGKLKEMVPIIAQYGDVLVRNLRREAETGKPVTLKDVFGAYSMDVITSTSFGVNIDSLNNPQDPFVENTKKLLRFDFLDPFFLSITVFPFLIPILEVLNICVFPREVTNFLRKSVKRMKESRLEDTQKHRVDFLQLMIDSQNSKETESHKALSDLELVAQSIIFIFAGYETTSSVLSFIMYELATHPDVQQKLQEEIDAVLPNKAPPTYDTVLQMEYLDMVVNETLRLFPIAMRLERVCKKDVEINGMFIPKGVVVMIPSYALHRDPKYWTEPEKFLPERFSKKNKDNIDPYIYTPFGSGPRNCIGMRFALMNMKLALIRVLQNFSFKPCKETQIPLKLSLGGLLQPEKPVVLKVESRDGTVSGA

What was measured:
CYP2D6 = CYP2D6 (Homo sapiens, UniProt P10635); assay: CYP2D6 inhibition assay (bufuralol, pooled human liver microsomes); assay type: in vitro ADME; conditions: read-out: 2D6 IC50
[1] = Microsomal stability assay, human liver microsomes; assay type: in vitro ADME;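 also: pooled human liver microsomes at 0.25 mg/mL with 1 µM compound and NADPH at 37 °C, pH 7.4, for 30 min, unchanged parent quantified by LC-MS/MS against the 0 min sample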
[2] = target: Beta Secretase enzyme (BACE) (Homo sapiens, UniProt P56817); assay: In vitro enzymatic BACE FRET (fluorescence resonance energy transfer) assay; assay type: biochemical; conditions: read-out: BACE1 FRET assay;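 also: fluorescence read after 1 h with 50 nM quenched peptide substrate spanning the BACE cleavage site, in pH 4.2 acetate buffer containing 10% DMSO and nonionic detergent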
CYP3A = CYP3A (Homo sapiens, UniProt P08684); conditions: read-out: 3A4 IC50;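 also: inhibition of CYP3A-mediated 1-hydroxymidazolam formation after 10 min incubation with NADPH, quantified by HPLC MS relative to metabolite produced without test compound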
[3] = test system: Aβ40 in conditioned medium of cells stably expressing Amyloid Precursor Protein (APP); assay: In vitro BACE cell-based assay (Aβ40 in conditioned medium, sandwich ELISA); conditions: read-out: HEK cell assay;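 also: compounds added as a dilution series, secreted peptide quantified by europium time-resolved fluorescence readout, potency fitted from percent of control versus compound concentration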
[4] = Microsomal stability assay, rat liver microsomes; assay type: in vitro ADME;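 also: rat liver microsomes (0.25 mg/mL) with about 1 µM compound plus 1 mM NADPH, pH 7.4, 37 °C for 30 min, parent left measured by LC-MS/MS against 0 min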

CO[C@H](C)C(=O)N[C@@H](Cc1cc(F)cc(-c2nccs2)c1)[C@H](O)CN[C@H]1C[C@]2(C[C@H](OC)C2)Oc2ncc(CC(C)(C)C)cc21
pIC50 (CYP2D6; CYP2D6 inhibition): 5.77
HLM ([1]; human liver microsomes): 192 µL/min/mg
pIC50 ([2]; BACE enzyme assay IC50): 7.80
pIC50 (CYP3A; CYP3A4 inhibition): 6.52
pIC50 ([3]; HEK cell-based assay IC50): 7.57
RLM ([4]; rat liver microsomes): 497 µL/min/mg

COc1cc(C[C@H](NC(=O)[C@@H](C)OC)[C@H](O)CN[C@H]2CC3(CCC3)Oc3ncc(CC(C)(C)C)cc32)ccn1
pIC50 (CYP2D6; CYP enzyme inhibition): 5.52
HLM ([1]; human liver microsomal data): 194 µL/min/mg
pIC50 ([2]; BACE enzyme assay): 7.70
pIC50 (CYP3A; CYP enzyme inhibition): 6.00
pIC50 ([3]; HEK cells): 7.55
RLM ([4]; rat liver microsomal data): 125 µL/min/mg

COCC(=O)N[C@@H](Cc1cc(F)cc(-c2nccs2)c1)[C@H](O)CN[C@H]1C[C@]2(C[C@H](OC)C2)Oc2ncc(CC(C)(C)C)cc21
pIC50 (CYP2D6; CYP2D6 inhibition): 5.51
HLM ([1]; human liver microsomes): 190 µL/min/mg
pIC50 ([2]; BACE enzyme assay IC50): 7.92
pIC50 (CYP3A; CYP3A4 inhibition): 6.30
pIC50 ([3]; HEK cell-based assay IC50): 7.85
RLM ([4]; rat liver microsomes): 426 µL/min/mg

COCC(=O)N[C@@H](Cc1cc(F)cc(-c2nccs2)c1)[C@H](O)CN[C@H]1CC2(CC(C)C2)Oc2ncc(CC(C)(C)C)cc21 (some centres unmarked)
pIC50 (CYP2D6; CYP2D6 inhibition): 6.22
HLM ([1]; human liver microsomes): 50 µL/min/mg
pIC50 ([2]; BACE enzyme assay IC50): 8.30
pIC50 (CYP3A; CYP3A4 inhibition): ≥ 7.52
pIC50 ([3]; HEK cell-based assay IC50): 7.70
RLM ([4]; rat liver microsomes): 111 µL/min/mg

CC(=O)N[C@@H](Cc1cccc(F)c1)[C@H](O)CN[C@@H]1CC2(CCC2)Oc2c1cc(CC(C)(C)C)nc2-n1ccnc1
pIC50 (CYP2D6; CYP enzyme inhibition): 5.77
HLM ([1]; human liver microsomal data): 50 µL/min/mg
pIC50 ([2]; BACE enzyme assay): 5.76
pIC50 (CYP3A; CYP enzyme inhibition): 7.00
pIC50 ([3]; HEK cells): 5.71
RLM ([4]; rat liver microsomal data): 286 µL/min/mg

COCC(=O)N[C@@H](Cc1cc(F)cc(-c2nccs2)c1)[C@H](O)CN[C@H]1C[C@]2(C[C@H](O)C2)Oc2ncc(CC(C)(C)C)cc21
pIC50 (CYP2D6; CYP2D6 inhibition): 4.95
HLM ([1]; human liver microsomes): 86 µL/min/mg
pIC50 ([2]; BACE enzyme assay IC50): 8.22
pIC50 (CYP3A; CYP3A4 inhibition): 6.22
pIC50 ([3]; HEK cell-based assay IC50): 8.30
RLM ([4]; rat liver microsomes): 199 µL/min/mg

CC(C)(C)Cc1cnc2c(c1)[C@@H](NC[C@@H](O)[C@H](Cc1cc(F)cc(-c3nccs3)c1)NC(=O)C1CC1)CC1(CCC1)O2
HLM ([1]; human liver microsomal data): 62 µL/min/mg
IC50 ([2]; BACE enzyme assay, IC50's in uM): 0.008 µM
pIC50 (CYP3A; CYP enzyme inhibition): 6.70
IC50 ([3]; cell-based assay, HEK cells, IC50's in uM): 0.024 µM
RLM ([4]; rat liver microsomal data): 74 µL/min/mg
